Measurements as given in patent US12616711B2, “Therapeutic dendrimer” (Starpharma Pty Ltd, priority 2019, dated 2026).

Columns and labels:
[1] = Gemcitabine release from dendrimers in citrate buffer; type: physicochemical; details: Citrate Buffer pH 4.5, 37° C.
Method: (§1) A study was carried out to determine the rate of gemcitabine release from dendrimer compounds in PBS and citrate buffer. Gemcitabine-conjugated dendrimers of the present disclosure, and a comparative example dendrimer, were each dissolved in PBS Buffer (2 mL, 10 mM, pH 7.4) or Citrate Buffer (2 mL, 0.1 M, pH 4.5) and held at 37° C. Samples were then analysed by injecting 5 μL of the solution on HPLC. At various time points, samples were analysed by HPLC. HPLC (C8 XBridge, 3×100 mm), gradient: 5% ACN/H2O (0-1 min), 5-80% ACN (1-7 min), 80% ACN (7-12 min), 80-5% ACN (12-13 min), 5% ACN (13-15 min), 243 nm, 10 mM ammonium formate buffer, 0.4 mL/min.

[2] = Gemcitabine release from dendrimers in PBS; type: physicochemical; details: PBS pH 7.4, 37° C.
Method: as §1

Row | Substance | % Gemcitabine released in citrate buffer ([1]; 0 h) [%] | % Gemcitabine released in citrate buffer ([1]; 0.08 h) [%] | % Gemcitabine released in citrate buffer ([1]; 2 h) [%] | % Gemcitabine released in citrate buffer ([1]; 4 h) [%] | % Gemcitabine released in citrate buffer ([1]; 6 h) [%] | % Gemcitabine released in citrate buffer ([1]; 8 h) [%] | % Gemcitabine released in citrate buffer ([1]; 10 h) [%] | % Gemcitabine released in citrate buffer ([1]; 12 h) [%] | % Gemcitabine released in citrate buffer ([1]; 24 h) [%] | % Gemcitabine released in citrate buffer ([1]; 26 h) [%] | % Gemcitabine released in citrate buffer ([1]; 28 h) [%] | % Gemcitabine released in citrate buffer ([1]; 30 h) [%] | % Gemcitabine released in citrate buffer ([1]; 32 h) [%] | % Gemcitabine released in citrate buffer ([1]; 34 h) [%] | % Gemcitabine released in citrate buffer ([1]; 36 h) [%] | % Gemcitabine released in PBS ([2]; 0 h) [%] | % Gemcitabine released in PBS ([2]; 0.08 h) [%] | % Gemcitabine released in PBS ([2]; 2 h) [%] | % Gemcitabine released in PBS ([2]; 4 h) [%] | % Gemcitabine released in PBS ([2]; 6 h) [%] | also measured
1 | [BHA Lys][Lys]30[Lys]32 [Compound 6, [BHA Lys][Lys]30[Lys]32 [(α-NH-DGA-Gemcitabine)32 (ε-NHPEG˜2100)32]] | 0 | 4.27 | 5.33 | 5.93 | 6.87 | 7.28 | 8.3 | 9.11 | 13.16 | 13.13 | 13.76 | 14.68 | 15.01 | 15.65 | 16.46 | 0 | 4.06 | 22.07 | 35.48 | 44.46 | % Gemcitabine released in PBS ([2]; 8 h): 51.97%; % Gemcitabine released in PBS ([2]; 10 h): 58.3%; % Gemcitabine released in PBS ([2]; 12 h): 63.5%; % Gemcitabine released in PBS ([2]; 24 h): 80.11%; % Gemcitabine released in PBS ([2]; 26 h): 81.61%; % Gemcitabine released in PBS ([2]; 28 h): 83.04%; % Gemcitabine released in PBS ([2]; 30 h): 84.51%; % Gemcitabine released in PBS ([2]; 32 h): 84.76%; % Gemcitabine released in PBS ([2]; 34 h): 86.95%; % Gemcitabine released in PBS ([2]; 36 h): 87.28%
2 | [BHA Lys][Lys]30[Lys]32 [Compound 8, [BHA Lys][Lys]30[Lys]32 [(α-NH-Glu-Gemcitabine)32 (ε-NHPEG˜2100)32]] | 0 | 5.93 | 6.14 | 5.36 | 5.38 | 5.71 | 5.43 | 5.79 | 6.65 | 6.49 | 6.95 | 6.18 | 6.29 | 6.17 | 6.28 | 0 | 7.04 | 7.83 | 8.09 | 8.05 | % Gemcitabine released in PBS ([2]; 8 h): 8.29%; % Gemcitabine released in PBS ([2]; 10 h): 8.79%; % Gemcitabine released in PBS ([2]; 12 h): 9.08%; % Gemcitabine released in PBS ([2]; 24 h): 12.43%; % Gemcitabine released in PBS ([2]; 26 h): 12.68%; % Gemcitabine released in PBS ([2]; 28 h): 13.47%; % Gemcitabine released in PBS ([2]; 30 h): 13.11%; % Gemcitabine released in PBS ([2]; 32 h): 14.12%; % Gemcitabine released in PBS ([2]; 34 h): 14.34%; % Gemcitabine released in PBS ([2]; 36 h): 15.01%
